The results in this text go back to ChEMBL document CHEMBL5608169, “A chemical modification of a peroxisome proliferator-activated receptor pan agonist produced a shift to a new dual alpha/gamma partial agonist endowed with mitochondrial pyruvate carrier inhibition and antidiabetic properties” (Eur J Med Chem, 2024).

The target in this assay is T1, Peroxisome proliferator-activated receptor delta (Homo sapiens) (UniProt Q03181).
T1 sequence (whole entry): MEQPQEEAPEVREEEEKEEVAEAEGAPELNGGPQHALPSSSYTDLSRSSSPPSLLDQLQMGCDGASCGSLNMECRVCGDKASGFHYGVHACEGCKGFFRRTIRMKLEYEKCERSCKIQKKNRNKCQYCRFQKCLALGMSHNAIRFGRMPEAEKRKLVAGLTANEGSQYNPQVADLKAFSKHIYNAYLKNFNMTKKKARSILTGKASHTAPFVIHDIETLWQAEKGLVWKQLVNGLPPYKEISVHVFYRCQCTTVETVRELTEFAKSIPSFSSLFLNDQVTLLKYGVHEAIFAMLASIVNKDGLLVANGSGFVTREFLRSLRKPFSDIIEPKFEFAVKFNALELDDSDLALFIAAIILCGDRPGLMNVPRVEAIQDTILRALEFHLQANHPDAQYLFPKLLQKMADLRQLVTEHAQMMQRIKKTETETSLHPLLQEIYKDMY
Nature of the assay: Partial agonist activity at N-terminal Gal4-fused human PPARdelta LBD transfected in human HepG2 cells assessed as maximum efficacy at 50 uM incubated for 20 hrs by luciferase based luminometric assay relative to control. It is filed as cell-based.
Turning to `CC[C@@](C)(Oc1ccc(-c2cccc3ccccc23)cc1)C(=O)O.NC1CCCCC1`, the Emax worked out at 17%.

With `C[C@@H](Oc1ccc(-c2cccc3ccccc23)cc1)C(=O)O`, the Emax was found to be 17%.

Turning to `C[C@H](Oc1ccc(-c2cccc3ccccc23)cc1)C(=O)O`, the Emax came to 12%.

Turning to `CCC(C)(Oc1ccc(-c2cccc3ccccc23)cc1)C(=O)O` (racemic), the Emax stood at 17%.

As to `CC[C@](C)(Oc1ccc(-c2cccc3ccccc23)cc1)C(=O)O.NC1CCCCC1`, the Emax turned out to be 12%.
